What was measured:
Assay in all cases: biochemical
Conditions in all cases: read-out: Percent Control
AAK1 = AAK1 (Homo sapiens, UniProt Q2M2I8)
ACVR2A = ACVR2A (Homo sapiens, UniProt P27037)
ASK1 = ASK1 (Homo sapiens, UniProt Q99683)
AURKC = AURKC (Homo sapiens, UniProt Q9UQB9)
BUB1 = BUB1 (Homo sapiens, UniProt O43683)
CAMK1G = CAMK1G (Homo sapiens, UniProt Q96NX5)
CAMK2B = CAMK2B (Homo sapiens, UniProt Q13554)
CDK3 = CDK3 (Homo sapiens, UniProt Q00526)
CLK4 = CLK4 (Homo sapiens, UniProt Q9HAZ1)
DYRK1A = DYRK1A (Homo sapiens, UniProt Q13627)
EGFR(G719C) = EGFR(G719C) (Homo sapiens, UniProt P00533, G719C)
EPHA2 = EPHA2 (Homo sapiens, UniProt P29317)
EPHB3 = EPHB3 (Homo sapiens, UniProt P54753)
FAK = FAK (Homo sapiens, UniProt Q05397)
FGFR1 = FGFR1 (Homo sapiens, UniProt P11362)
FGFR4 = FGFR4 (Homo sapiens, UniProt P22455)
FLT3(D835H) = FLT3(D835H) (Homo sapiens, UniProt P36888, D835H)
FLT3-autoinhibited = FLT3-autoinhibited (Homo sapiens, UniProt P36888)
FLT4 = FLT4 (Homo sapiens, UniProt P35916)
GRK1 = GRK1 (Homo sapiens, UniProt Q15835)
HPK1 = HPK1 (Homo sapiens, UniProt Q92918)
ITK = ITK (Homo sapiens, UniProt Q08881)
LATS1 = LATS1 (Homo sapiens, UniProt O95835)
LATS2 = LATS2 (Homo sapiens, UniProt Q9NRM7)
LIMK1 = LIMK1 (Homo sapiens, UniProt P53667)
LTK = LTK (Homo sapiens, UniProt P29376)
MAP4K4 = MAP4K4 (Homo sapiens, UniProt O95819)
MET(M1250T) = MET(M1250T) (Homo sapiens, UniProt P08581, M1250T)
MST4 = MST4 (Homo sapiens, UniProt Q9P289)
PIK3CA(C420R) = PIK3CA(C420R) (Homo sapiens, UniProt P42336, C420R)
PIK3CA(M1043I) = PIK3CA(M1043I) (Homo sapiens, UniProt P42336, M1043I)
PIK3CB = PIK3CB (Homo sapiens, UniProt P42338)
PIP5K1C = PIP5K1C (Homo sapiens, UniProt O60331)
PIP5K2C = PIP5K2C (Homo sapiens, UniProt Q8TBX8)
PLK4 = PLK4 (Homo sapiens, UniProt O00444)
PRKG1 = PRKG1 (Homo sapiens, UniProt Q13976)
PYK2 = PYK2 (Homo sapiens, UniProt Q14289)
RET(V804M) = RET(V804M) (Homo sapiens, UniProt P07949, V804M)
RIPK1 = RIPK1 (Homo sapiens, UniProt Q13546)
[1] = target: RSK2(Kin.Dom.2-C-terminal) (Homo sapiens, UniProt P51812)
TGFBR2 = TGFBR2 (Homo sapiens, UniProt P37173)
TNK2 = TNK2 (Homo sapiens, UniProt Q07912)
ULK2 = ULK2 (Homo sapiens, UniProt Q8IYT8)

Sequences of proteins named here, by UniProt entry; tags and fusion partners are left off. A change or cut given only in a name is not applied to a line headed by its entry. Residues count along the entry.
UniProt Q99683: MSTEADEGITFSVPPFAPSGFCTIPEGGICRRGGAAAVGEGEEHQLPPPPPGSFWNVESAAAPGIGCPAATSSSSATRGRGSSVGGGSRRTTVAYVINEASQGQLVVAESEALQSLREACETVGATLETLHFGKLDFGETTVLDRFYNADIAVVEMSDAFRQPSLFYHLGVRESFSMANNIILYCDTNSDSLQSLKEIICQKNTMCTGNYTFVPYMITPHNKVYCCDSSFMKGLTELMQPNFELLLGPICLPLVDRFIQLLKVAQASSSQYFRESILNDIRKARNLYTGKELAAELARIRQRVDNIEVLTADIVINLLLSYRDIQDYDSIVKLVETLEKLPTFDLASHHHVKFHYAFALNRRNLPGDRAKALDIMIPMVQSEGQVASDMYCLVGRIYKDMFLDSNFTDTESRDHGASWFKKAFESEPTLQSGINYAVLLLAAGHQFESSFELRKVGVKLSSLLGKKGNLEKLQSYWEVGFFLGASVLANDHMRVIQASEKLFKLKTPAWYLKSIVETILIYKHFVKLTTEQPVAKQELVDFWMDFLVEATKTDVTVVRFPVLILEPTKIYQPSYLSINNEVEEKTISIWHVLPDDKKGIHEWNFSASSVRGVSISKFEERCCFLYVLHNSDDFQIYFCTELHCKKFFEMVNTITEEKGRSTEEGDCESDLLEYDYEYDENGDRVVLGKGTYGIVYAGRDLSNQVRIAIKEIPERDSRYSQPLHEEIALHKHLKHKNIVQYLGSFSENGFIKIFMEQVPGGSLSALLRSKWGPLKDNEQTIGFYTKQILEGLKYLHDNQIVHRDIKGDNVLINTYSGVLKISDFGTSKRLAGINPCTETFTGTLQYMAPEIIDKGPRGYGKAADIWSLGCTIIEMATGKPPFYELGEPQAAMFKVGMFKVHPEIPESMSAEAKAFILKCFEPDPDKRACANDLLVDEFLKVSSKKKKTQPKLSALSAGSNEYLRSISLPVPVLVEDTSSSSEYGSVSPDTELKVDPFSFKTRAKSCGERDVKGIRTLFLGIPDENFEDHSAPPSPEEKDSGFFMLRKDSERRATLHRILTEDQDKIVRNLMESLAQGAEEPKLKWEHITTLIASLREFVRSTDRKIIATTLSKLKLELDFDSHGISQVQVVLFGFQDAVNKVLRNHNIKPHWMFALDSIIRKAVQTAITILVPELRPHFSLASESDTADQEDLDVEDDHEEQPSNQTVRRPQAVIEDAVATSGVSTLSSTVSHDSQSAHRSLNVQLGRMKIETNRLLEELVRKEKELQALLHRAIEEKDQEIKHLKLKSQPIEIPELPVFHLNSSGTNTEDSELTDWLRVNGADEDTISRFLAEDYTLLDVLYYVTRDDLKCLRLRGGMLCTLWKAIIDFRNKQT
UniProt Q96NX5: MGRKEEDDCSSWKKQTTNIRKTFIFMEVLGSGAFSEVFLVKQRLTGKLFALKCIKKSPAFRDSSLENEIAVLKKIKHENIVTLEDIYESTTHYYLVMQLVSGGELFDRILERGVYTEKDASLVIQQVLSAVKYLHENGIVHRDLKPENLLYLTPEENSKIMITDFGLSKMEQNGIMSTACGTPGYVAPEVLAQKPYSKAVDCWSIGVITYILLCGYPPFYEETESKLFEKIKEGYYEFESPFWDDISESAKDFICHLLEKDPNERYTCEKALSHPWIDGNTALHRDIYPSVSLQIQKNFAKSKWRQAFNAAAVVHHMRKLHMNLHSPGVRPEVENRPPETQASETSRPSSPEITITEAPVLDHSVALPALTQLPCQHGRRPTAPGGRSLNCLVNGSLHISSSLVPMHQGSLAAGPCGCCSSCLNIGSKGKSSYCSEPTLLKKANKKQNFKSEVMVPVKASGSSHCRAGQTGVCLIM
UniProt Q00526: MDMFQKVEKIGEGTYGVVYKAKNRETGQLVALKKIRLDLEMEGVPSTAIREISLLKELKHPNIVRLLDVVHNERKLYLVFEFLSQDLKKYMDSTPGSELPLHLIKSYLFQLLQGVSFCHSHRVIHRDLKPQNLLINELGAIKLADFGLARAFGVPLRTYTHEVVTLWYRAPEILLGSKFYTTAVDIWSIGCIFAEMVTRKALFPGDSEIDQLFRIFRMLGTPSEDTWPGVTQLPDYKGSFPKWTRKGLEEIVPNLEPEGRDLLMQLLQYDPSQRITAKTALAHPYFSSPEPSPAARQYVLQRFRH
UniProt P22455, 22-802: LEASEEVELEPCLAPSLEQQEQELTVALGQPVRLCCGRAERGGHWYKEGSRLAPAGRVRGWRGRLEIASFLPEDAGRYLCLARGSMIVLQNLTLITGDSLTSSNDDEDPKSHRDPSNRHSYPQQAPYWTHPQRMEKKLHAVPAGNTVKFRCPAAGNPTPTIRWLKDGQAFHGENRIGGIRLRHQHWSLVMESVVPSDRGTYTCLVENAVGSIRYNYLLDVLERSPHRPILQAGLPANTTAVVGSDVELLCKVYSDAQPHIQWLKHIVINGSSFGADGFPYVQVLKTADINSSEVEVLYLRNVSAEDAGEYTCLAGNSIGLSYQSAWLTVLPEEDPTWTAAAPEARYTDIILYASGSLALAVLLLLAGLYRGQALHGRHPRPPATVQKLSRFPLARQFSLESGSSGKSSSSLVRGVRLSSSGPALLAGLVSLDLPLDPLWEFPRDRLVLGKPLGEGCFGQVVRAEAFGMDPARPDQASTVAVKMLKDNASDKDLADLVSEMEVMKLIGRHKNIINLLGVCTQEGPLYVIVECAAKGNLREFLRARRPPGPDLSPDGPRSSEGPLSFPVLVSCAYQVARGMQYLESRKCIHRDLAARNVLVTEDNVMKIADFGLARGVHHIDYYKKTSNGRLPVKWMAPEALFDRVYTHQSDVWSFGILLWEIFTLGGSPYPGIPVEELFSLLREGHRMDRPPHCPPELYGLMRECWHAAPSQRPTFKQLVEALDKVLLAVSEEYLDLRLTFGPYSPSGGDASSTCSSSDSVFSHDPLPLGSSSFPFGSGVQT
UniProt P53667: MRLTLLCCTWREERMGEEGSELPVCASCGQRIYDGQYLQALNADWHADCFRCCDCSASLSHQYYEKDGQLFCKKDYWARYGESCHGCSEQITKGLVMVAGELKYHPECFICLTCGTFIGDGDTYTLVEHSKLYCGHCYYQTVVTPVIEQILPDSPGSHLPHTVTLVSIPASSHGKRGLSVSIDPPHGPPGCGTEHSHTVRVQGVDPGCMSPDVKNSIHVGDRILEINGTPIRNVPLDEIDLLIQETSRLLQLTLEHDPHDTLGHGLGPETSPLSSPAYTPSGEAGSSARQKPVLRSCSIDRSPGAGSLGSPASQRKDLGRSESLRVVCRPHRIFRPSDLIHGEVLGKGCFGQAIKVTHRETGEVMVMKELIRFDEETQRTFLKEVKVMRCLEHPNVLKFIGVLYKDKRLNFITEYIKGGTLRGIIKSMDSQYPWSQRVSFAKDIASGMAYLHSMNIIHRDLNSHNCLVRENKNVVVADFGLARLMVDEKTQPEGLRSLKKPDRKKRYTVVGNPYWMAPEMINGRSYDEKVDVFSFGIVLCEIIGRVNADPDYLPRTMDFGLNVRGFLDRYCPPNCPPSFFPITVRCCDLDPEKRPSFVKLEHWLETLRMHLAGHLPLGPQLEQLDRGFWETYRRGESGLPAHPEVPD
UniProt P29376, 17-864: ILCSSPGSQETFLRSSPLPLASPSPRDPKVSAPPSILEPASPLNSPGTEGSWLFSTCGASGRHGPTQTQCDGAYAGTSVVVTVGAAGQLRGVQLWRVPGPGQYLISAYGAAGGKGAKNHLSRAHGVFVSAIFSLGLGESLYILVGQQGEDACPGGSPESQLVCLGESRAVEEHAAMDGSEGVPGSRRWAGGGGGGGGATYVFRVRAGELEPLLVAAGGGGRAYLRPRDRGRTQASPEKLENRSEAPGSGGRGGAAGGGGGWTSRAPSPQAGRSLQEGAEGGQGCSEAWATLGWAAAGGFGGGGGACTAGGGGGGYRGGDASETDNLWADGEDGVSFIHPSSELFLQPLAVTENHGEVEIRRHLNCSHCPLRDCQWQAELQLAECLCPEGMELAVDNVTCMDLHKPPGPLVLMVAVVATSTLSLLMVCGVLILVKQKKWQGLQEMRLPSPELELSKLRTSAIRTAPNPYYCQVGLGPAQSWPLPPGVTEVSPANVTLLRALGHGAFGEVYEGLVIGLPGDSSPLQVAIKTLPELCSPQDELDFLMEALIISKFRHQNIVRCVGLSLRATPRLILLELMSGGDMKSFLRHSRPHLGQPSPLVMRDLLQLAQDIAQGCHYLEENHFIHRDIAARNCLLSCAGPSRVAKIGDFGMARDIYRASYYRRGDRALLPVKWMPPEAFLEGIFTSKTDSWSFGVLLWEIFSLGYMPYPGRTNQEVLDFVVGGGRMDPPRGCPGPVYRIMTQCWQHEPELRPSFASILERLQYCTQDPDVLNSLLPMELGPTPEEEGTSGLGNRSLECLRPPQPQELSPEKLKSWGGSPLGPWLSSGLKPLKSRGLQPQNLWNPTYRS
UniProt P42338: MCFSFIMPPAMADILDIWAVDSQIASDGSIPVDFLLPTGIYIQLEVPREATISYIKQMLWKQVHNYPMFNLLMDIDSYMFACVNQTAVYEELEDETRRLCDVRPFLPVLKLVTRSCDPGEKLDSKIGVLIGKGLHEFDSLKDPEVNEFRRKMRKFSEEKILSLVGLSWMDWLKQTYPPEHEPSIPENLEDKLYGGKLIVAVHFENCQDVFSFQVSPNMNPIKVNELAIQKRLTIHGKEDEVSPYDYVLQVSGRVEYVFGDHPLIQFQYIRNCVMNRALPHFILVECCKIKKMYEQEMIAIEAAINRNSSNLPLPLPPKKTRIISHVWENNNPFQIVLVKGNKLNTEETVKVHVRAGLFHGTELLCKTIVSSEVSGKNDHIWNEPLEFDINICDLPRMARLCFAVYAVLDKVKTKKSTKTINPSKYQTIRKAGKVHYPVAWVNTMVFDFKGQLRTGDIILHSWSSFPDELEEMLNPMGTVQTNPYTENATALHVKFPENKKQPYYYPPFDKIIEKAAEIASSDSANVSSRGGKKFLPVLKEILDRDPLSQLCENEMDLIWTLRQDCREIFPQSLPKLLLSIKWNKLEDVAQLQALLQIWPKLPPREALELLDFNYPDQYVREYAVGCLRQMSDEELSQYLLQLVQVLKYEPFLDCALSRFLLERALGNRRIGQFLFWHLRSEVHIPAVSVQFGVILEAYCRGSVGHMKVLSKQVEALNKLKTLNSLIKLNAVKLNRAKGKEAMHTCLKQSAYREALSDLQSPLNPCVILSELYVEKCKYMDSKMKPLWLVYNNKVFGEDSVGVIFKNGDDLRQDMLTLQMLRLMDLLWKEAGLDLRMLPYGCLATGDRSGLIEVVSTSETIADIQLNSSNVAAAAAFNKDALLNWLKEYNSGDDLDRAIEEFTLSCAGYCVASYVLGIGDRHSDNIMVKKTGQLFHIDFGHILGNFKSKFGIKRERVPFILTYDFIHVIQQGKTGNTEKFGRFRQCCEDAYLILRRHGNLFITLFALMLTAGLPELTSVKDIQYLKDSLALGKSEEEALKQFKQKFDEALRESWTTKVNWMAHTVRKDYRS
UniProt O60331: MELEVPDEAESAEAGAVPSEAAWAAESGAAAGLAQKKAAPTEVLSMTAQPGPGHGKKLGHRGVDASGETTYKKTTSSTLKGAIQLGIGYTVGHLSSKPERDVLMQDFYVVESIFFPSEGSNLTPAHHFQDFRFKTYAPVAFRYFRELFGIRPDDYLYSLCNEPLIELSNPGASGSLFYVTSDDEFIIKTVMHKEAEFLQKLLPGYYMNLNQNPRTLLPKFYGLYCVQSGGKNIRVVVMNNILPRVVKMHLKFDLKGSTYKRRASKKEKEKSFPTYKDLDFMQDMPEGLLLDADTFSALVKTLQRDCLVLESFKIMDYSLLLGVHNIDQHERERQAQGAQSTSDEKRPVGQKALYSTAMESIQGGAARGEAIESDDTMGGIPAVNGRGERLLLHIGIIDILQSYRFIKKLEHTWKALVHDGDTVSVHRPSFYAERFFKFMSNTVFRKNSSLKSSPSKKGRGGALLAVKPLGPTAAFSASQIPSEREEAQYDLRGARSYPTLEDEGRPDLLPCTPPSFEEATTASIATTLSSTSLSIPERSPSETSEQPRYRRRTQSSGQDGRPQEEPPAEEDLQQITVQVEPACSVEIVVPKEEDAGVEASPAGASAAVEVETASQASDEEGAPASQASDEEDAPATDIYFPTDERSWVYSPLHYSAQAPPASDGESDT
UniProt P51812, 422-679 limits assumed: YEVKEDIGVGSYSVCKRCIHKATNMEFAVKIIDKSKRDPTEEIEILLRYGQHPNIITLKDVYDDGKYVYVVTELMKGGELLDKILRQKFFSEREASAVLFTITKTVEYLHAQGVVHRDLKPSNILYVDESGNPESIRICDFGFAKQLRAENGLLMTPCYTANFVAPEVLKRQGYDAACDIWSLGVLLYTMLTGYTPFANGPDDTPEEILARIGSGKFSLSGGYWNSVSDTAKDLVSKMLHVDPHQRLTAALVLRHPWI

COc1cc2c(Nc3ccc(Cl)c(OC)n3)c(C#N)cnc2cc1OCCON1CCN(C)CC1 [16a, 4-((5-Chloro-6-methoxypyridin-2-yl)amino)-6-methoxy-7-(2-((4-methylpiperazin-1-yl)oxy)ethoxy)quinoline-3-carbonitrile]
remaining activity at 1 µM (AAK1): 6.8% | remaining activity at 1 µM (ACVR2A): 100% | remaining activity at 1 µM (ASK1): 100% | remaining activity at 1 µM (AURKC): 61% | remaining activity at 1 µM (BUB1): 100% | remaining activity at 1 µM (CAMK1G): 29% | remaining activity at 1 µM (CAMK2B): 80% | remaining activity at 1 µM (CDK3): 99% | remaining activity at 1 µM (CLK4): 8.1% | remaining activity at 1 µM (DYRK1A): 40% | remaining activity at 1 µM (EGFR(G719C)): 0.7% | remaining activity at 1 µM (EPHA2): 7.1% | remaining activity at 1 µM (EPHB3): 72% | remaining activity at 1 µM (FAK): 43% | remaining activity at 1 µM (FGFR1): 77% | remaining activity at 1 µM (FGFR4): 100% | remaining activity at 1 µM (FLT3(D835H)): 25% | remaining activity at 1 µM (FLT3-autoinhibited): 100% | remaining activity at 1 µM (FLT4): 67% | remaining activity at 1 µM (GRK1): 64% | remaining activity at 1 µM (HPK1): 0.1% | remaining activity at 1 µM (ITK): 86% | remaining activity at 1 µM (LATS1): 100% | remaining activity at 1 µM (LATS2): 91% | remaining activity at 1 µM (LIMK1): 97% | remaining activity at 1 µM (LTK): 56% | remaining activity at 1 µM (MAP4K4): 0.9% | remaining activity at 1 µM (MET(M1250T)): 68% | remaining activity at 1 µM (MST4): 4% | remaining activity at 1 µM (PIK3CA(C420R)): 100% | remaining activity at 1 µM (PIK3CA(M1043I)): 100% | remaining activity at 1 µM (PIK3CB): 96% | remaining activity at 1 µM (PIP5K1C): 55% | remaining activity at 1 µM (PIP5K2C): 64% | remaining activity at 1 µM (PLK4): 99% | remaining activity at 1 µM (PRKG1): 100% | remaining activity at 1 µM (PYK2): 55% | remaining activity at 1 µM (RET(V804M)): 59% | remaining activity at 1 µM (RIPK1): 100% | remaining activity at 1 µM [1]: 100% | remaining activity at 1 µM (TGFBR2): 100% | remaining activity at 1 µM (TNK2): 2.2% | remaining activity at 1 µM (ULK2): 14%

— article PMC11472320, “Computationally Driven Discovery of a BCR-ABL1 Kinase Inhibitor with Activity in Multidrug-Resistant Chronic Myeloid Leukemia” (Journal of Medicinal Chemistry, 2024)
